Measured values published in ChEMBL document CHEMBL1132531, “From histamine to imidazolylalkyl-sulfonamides: the design of a novel series of histamine H3-receptor antagonists” (Bioorg Med Chem Lett, 1999).

Sequences of proteins named here, by UniProt entry; tags and fusion partners are left off. A change or cut given only in a name is not applied to a line headed by its entry.
UniProt Q9JI35: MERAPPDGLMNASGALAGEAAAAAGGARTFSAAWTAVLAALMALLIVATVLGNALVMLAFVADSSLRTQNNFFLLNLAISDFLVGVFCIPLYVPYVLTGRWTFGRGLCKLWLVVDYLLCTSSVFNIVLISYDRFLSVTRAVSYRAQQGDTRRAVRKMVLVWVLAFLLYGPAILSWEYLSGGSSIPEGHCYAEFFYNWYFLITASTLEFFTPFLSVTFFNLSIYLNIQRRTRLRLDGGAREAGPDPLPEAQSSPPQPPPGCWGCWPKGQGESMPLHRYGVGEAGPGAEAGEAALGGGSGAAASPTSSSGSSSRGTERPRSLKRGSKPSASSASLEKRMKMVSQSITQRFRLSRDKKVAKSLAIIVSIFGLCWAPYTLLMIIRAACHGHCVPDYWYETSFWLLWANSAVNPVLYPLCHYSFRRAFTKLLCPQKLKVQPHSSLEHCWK

Biological target: Histamine H3 receptor (Cavia porcellus, UniProt Q9JI35)
Assay: Binding affinity towards histamine H3 receptor using [3H](R)-alpha-methylhistamine as radioligand in guinea pig cortical homogenates

In the case of `O=S(=O)(Cc1ccccc1)NCCc1c[nH]cn1`, the Ki is reported as 1860 nM.
